# According to PubChem BioAssay AID588511 (Johns Hopkins Ion Channel Center, 2011):
# Sequences of proteins named here, by UniProt entry; tags and fusion partners are left off.
# UniProt Q8BHY3, whole entry: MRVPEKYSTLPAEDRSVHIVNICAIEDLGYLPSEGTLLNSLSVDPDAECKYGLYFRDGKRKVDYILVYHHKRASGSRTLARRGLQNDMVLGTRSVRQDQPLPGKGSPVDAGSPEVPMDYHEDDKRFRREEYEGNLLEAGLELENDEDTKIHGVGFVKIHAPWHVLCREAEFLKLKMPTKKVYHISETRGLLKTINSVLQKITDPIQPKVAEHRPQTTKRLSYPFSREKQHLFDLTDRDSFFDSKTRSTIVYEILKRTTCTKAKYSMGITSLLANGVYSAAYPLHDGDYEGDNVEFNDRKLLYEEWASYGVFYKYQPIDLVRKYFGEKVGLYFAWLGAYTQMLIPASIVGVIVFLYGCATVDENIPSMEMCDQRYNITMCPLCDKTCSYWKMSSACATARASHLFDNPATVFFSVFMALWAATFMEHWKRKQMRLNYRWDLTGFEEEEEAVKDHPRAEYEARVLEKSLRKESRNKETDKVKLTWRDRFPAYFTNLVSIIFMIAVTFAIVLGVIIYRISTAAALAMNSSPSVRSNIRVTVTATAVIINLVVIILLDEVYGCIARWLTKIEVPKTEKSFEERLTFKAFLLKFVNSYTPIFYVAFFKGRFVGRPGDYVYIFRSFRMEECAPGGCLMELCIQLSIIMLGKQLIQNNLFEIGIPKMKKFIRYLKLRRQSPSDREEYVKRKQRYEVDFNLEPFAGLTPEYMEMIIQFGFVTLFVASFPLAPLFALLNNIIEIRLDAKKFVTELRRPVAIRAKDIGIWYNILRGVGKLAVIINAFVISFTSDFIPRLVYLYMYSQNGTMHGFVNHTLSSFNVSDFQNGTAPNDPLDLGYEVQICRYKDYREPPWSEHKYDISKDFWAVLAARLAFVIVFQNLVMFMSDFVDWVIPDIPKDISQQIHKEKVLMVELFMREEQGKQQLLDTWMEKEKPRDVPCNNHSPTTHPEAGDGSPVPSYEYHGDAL
# The list shows a part of the results, in another mix than the full data. Some results for these compounds are left out of this collection, so the calls shown say nothing about other tests. Active and inactive are the calls of the source.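 Rule for the calls: active = ratio plate-corrected score three or more library SD toward inhibition, starting fluorescence score within five deviations; inactive = the rest.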
# Biological target: Anoctamin-1 (Mus musculus) (UniProt Q8BHY3)
# Assay: blockers of mouse ANO1 Ca-activated Cl channel – cell-based, HTS, primary screen (AID 588511)
# Settings: HEK293 TMEM16A/YFP iodide influx fluorescence, ionomycin; at 10 µM
row,SMILES,outcome
1,CN(C)c1ccc(C(=O)NCC2(N(C)C)CCCCC2)cc1,inactive
2,CN(C)C1CCCC1OC(=O)C(O)(c1ccccc1)c1ccccc1 (centres undefined),inactive
3,Cc1ccccc1C(=O)NCC1(N2CCCCC2)CCCCC1,inactive
4,O=C(NCC1(N2CCCCC2)CCCCC1)c1cc(F)c(F)cc1Cl,inactive
5,C=CCN1CCN(CCOC(=O)C(O)(c2ccccc2)c2ccccc2)CC1,inactive
6,COc1ccc(C(=O)NCC2(N(C)C)CCCCC2)cc1,inactive
7,O=C(NCC1(N2CCCCC2)CCCCC1)c1cccc(Br)c1,inactive
8,CCN1CCCC(OC(=O)C2(O)c3ccccc3C=Cc3ccccc32)C1 (centres undefined),inactive
9,Cc1cc(C(=O)NCC2(N3CCCCC3)CCCCC2)ccc1[N+](=O)[O-],inactive
10,O=C(NCC1(N2CCCCC2)CCCCC1)c1cc([N+](=O)[O-])ccc1Cl,inactive
11,CN1[C@@H]2CC[C@H]1CC(OC(=O)C(O)(c1ccccc1)c1ccccc1)C2 (some centres undefined),inactive
12,COc1cc(SC)ccc1C(=O)NCC1(N(C)C)CCCCC1,inactive
13,CCN(CC)CC(C)C(C)OC(=O)C(O)(c1ccccc1)c1ccccc1 (centres undefined),inactive
14,CC(C)N1C(=O)CC2(CCN(CCOC(=O)C(O)(c3ccccc3)c3ccccc3)CC2)C1=O,inactive
15,Cc1ccc(C(=O)NCC2(N3CCCCC3)CCCCC2)cc1,inactive
16,O=C(OC1CN2CCC1CC2)C(CO)(c1ccccc1)c1ccccc1 (centres undefined),inactive
17,COc1ccc(Br)c(C(=O)NCC2(N3CCCCC3)CCCCC2)c1,inactive
18,CC(C)Oc1ccc(C(=O)NCC2(N(C)C)CCCCC2)cc1,inactive
19,CN(C)c1cccc(C(=O)NCC2(N(C)C)CCCCC2)c1,inactive
20,CN(C)C1(CNC(=O)c2ccc(Br)cc2)CCCCC1,inactive
21,COc1cc(C(=O)NCC2(N(C)C)CCCCC2)c([N+](=O)[O-])cc1OC,inactive
22,COc1ccc(Cl)cc1C(=O)NCC1(N(C)C)CCCCC1,inactive
23,COc1cccc(C(=O)NCC2(N3CCCCC3)CCCCC2)c1,inactive
24,O=C(NCC1(N2CCCCC2)CCCCC1)c1cccc(Cl)c1,inactive
